{
  "source": "paper PMC6988309",
  "about": "“Preclinical efficacy for a novel tyrosine kinase inhibitor, ArQule 531 against acute myeloid leukemia” (Journal of Hematology & Oncology, 2020)",
  "tested_on": "BTK phosphorylation",
  "assay": "Immunoblot of phospho-BTK",
  "type": "cell-based, human",
  "conditions": "AML cell lines; MOLM-13 1 µM for 1 hour (Figure S2)",
  "procedure": "Cells were washed in ice-cold PBS then lysed in 1X Cell Lysis Buffer (CST) supplemented with proteinase and phosphatase inhibitors cocktail (Roche). Pierce BCA Protein Assay was used to quantify the protein lysates (Thermo Fisher Scientific, Waltham, MA). For Immunoblotting, 15–25 μg of protein lysate was prepared in 2X or 4X Laemmeli’s sample buffer (Bio-Rad Laboratories, Hercules, CA) and heated for 5 min at 100 °C. Samples were separated on 8% sodium dodecyl sulfate polyacrylamide gel and transferred onto nitrocellulose membrane (Bio-Rad Laboratories, Hercules, CA). The membranes were blocked for 1 h in Blocker BLOTTO Blocking Buffer (Thermo Fisher Scientific, Waltham, MA) or 5% non-fat milk followed by overnight incubation at 4 °C with primary antibody followed by HRP-conjugated secondary antibodies and visualized with chemiluminescent Pierce ECL Substrate (Thermo Fisher Scientific, Waltham, MA) on X-ray films.\nImmunoblot analysis for MOLM-13, MV4-11, and OCI-AML3 AML cell lines (representative of 2-3 independent blots). […] Twenty to 25 μg of total protein lysate was loaded per lane.",
  "data": [
    {"smiles": "c1cn2cc(-c3ccc4cn[nH]c4c3)nc(Nc3ccc(N4CCOCC4)cc3)c2n1", "note": "[entospletinib, Entospletinib, reference compound]", "values": [
      {"measurement": "effect on BTK phosphorylation", "result": "no effect on BTK phosphorylation"}
    ]}
  ]
}
